Columns and labels:
[1] = tested on: U87MG human glioblastoma (GBM) cell line; experiment: Antitumor effect in U87MG GBM animal model, bioluminescence imaging (Example 1); assay type: in vivo, nude mice
Experimental: (§1) The study was composed of four groups of 8 to 10 GBM model mice per group. […] BCV and the vehicle were administered intraperitoneally twice weekly for 5 weeks, starting on day 7 post-GBM implantation. During the administration period, to evaluate tumor growth in the brain, bioluminescence imaging (BLI) was performed twice weekly using the IVIS Lumina imaging system, 10 minutes after intraperitoneal administration of 150 mg/kg luciferin under ketamine-xylazine anesthesia.

[2] = Body weight and systemic toxicity observation in GBM model mice (Example 1); assay type: in vivo, nude mice
Experimental: as §1

[3] = Systemic toxicity observation in GBM model mice (Example 2); assay type: in vivo, nude mice; details: any of the BCV monotherapy (10, 20 mg/kg) and combination therapy (with 2 mg/kg TMZ) groups
[4] = tested on: GBM6 cells derived from a GBM patient; experiment: Orthotopic GBM PDX model with GBM6 cells (unmethylated MGMT promoter), BLI and survival rate (Example 4); assay type: in vivo, mice
[5] = Systemic toxicity observation in GBM6 PDX mice (Example 4); assay type: in vivo; details: 20 mg/kg BCV intraperitoneally twice weekly
[6] = PK study of BCV in mice, plasma concentration (Example 5); assay type: in vivo, Female C57BL/6 mice; details: female, C57BL/6, mouse, ip, estimated for 10 mg/kg intraperitoneal in mice from the average of day 1 and 6-day continuous 13 mg/kg results
Experimental: Female C57BL/6 mice were administered intraperitoneally with BCV at 13 mg/kg (n=3) and, after continuous administration of the same dose for 6 days, blood samples were collected at 0.5, 1, 2, 4, 8, 12, and 24 hours. The plasma BCV concentration obtained from K2EDTA-treated samples was quantified by a previously reported MC-MS/MS method (Biomed Chromatogr. 2021 35:e5061). […] Based on the above, the intraperitoneal administration of 10 mg/kg BCV, 20 mg/kg BCV, and 40 mg/kg BCV to mice in Examples 1 to 4 (including monotherapy or combination therapy) can be converted to intravenous administration of 20 mg/body BCV, 40 mg/body BCV, and 80 mg/body BCV to humans, respectively.

[7] = tested on: A-172; experiment: CellTiter-Glo (CTG) cytotoxicity assay; assay type: cell-based; details: Homo sapiens, 120 h, 5 days of culture
Experimental: (§2) The in vitro cytotoxicity of BCV against various human GBM cell lines shown in Table 1 was evaluated by the CellTiter-GloTM (CTG) assay (Promega, Wisconsin, USA). The CTG assay measures the number of viable cells in culture by quantifying intracellular adenosine triphosphate (ATP), an indicator of metabolic activity, by bioluminescence. Specifically, various concentrations of BCV were added to 96-well plates in which GBM cells were plated at a concentration of 2 x 10^3 cells in each medium shown in Table 1, and after 5 days of culture at 37°C and 5% CO2, the cells were treated with CTG reagent and lysed. The fluorescence signal was measured using an Envision™ plate reader (PerkinElmer, Connecticut, USA). Cytotoxicity was evaluated as a percentage of the control fluorescence signal. A dose-response curve was generated by plotting the percentage of cytotoxicity against the drug concentration using GraphPad Prism (GraphPad Software, Massachusetts, USA). Furthermore, the 50% inhibitory concentration (IC50 value) of BCV against various GBM cell lines was determined to evaluate the cytotoxic effect. All assays were performed in duplicate.

[8] = tested on: AM-38; experiment: CellTiter-Glo (CTG) cytotoxicity assay; assay type: cell-based; details: Homo sapiens, 120 h, 5 days of culture
Experimental: as §2

[9] = tested on: KALS-1; experiment: CellTiter-Glo (CTG) cytotoxicity assay; assay type: cell-based; details: Homo sapiens, 120 h, 5 days of culture
Experimental: as §2

[10] = tested on: KNS-42; experiment: CellTiter-Glo (CTG) cytotoxicity assay; assay type: cell-based; details: Homo sapiens, 120 h, 5 days of culture
Experimental: as §2

[11] = tested on: LN-18; experiment: CellTiter-Glo (CTG) cytotoxicity assay; assay type: cell-based; details: Homo sapiens, 120 h, 5 days of culture
Experimental: as §2

[12] = tested on: LN-229; experiment: CellTiter-Glo (CTG) cytotoxicity assay; assay type: cell-based; details: Homo sapiens, 120 h, 5 days of culture
Experimental: as §2

[13] = tested on: SNU-1105; experiment: CellTiter-Glo (CTG) cytotoxicity assay; assay type: cell-based; details: Homo sapiens, 120 h, 5 days of culture
Experimental: as §2

[14] = tested on: SNU-466; experiment: CellTiter-Glo (CTG) cytotoxicity assay; assay type: cell-based; details: Homo sapiens, 120 h, 5 days of culture
Experimental: as §2

[15] = tested on: T98G; experiment: CellTiter-Glo (CTG) cytotoxicity assay; assay type: cell-based; details: Homo sapiens, 120 h, 5 days of culture
Experimental: as §2

[16] = tested on: U-138 MG; experiment: CellTiter-Glo (CTG) cytotoxicity assay; assay type: cell-based; details: Homo sapiens, U138-MG, 120 h, 5 days of culture
Experimental: as §2

[17] = tested on: U-87MG; experiment: CellTiter-Glo (CTG) cytotoxicity assay; assay type: cell-based; details: Homo sapiens, 120 h, 5 days of culture
Experimental: as §2

[18] = tested on: various human GBM cell lines; experiment: CellTiter-Glo (CTG) cytotoxicity assay, all 11 cell lines together; assay type: cell-based; details: median over the 11 human GBM cell lines
Experimental: as §2

[19] = tested on: U-87MG/MGMT monoclonal cells A8-1; experiment: Cytotoxicity test on MGMT-overexpressing U-87MG monoclonal cells (Example 7); assay type: cell-based, human; details: A8-1 cells; higher than parent strain
Experimental: as §2, with “A dose-response curve was generated by plotting the percentage of cytotoxicity against the drug concentration using GraphPad Prism (GraphPad Software, Massachusetts, USA). Furthermore, the 50% inhibitory concentration (IC50 value) of BCV against various GBM cell lines was determined to evaluate the cytotoxic effect. All assays were performed in duplicate.” left out
(§3) To further clarify the effect of MGMT expression on sensitivity to BCV, the MGMT gene was forcibly expressed in the U-87MG cell line using a lentivirus as a vector. […] The MGMT expression level was evaluated using quantitative polymerase chain reaction (PCR) and Western blotting.
(§4) Monoclonal cells of the U-87MG cell line with forced expression of the MGMT gene were generated from U-87MG/MGMT pooled cells using the limiting dilution method in a 96-well plate. […] MGMT expression in U-87MG/MGMT monoclonal cells was identified by quantitative PCR and Western blotting in the same manner as described above. […]

[20] = tested on: U-87MG/MGMT monoclonal cells E7-3; experiment: as above; assay type: cell-based, human; details: E7-3 cells; higher than parent strain
Experimental: as §2, with “A dose-response curve was generated by plotting the percentage of cytotoxicity against the drug concentration using GraphPad Prism (GraphPad Software, Massachusetts, USA). Furthermore, the 50% inhibitory concentration (IC50 value) of BCV against various GBM cell lines was determined to evaluate the cytotoxic effect. All assays were performed in duplicate.” left out
as §3, §4

[21] = tested on: GBM39 cells derived from a GBM patient; experiment: Orthotopic GBM PDX model with GBM39 cells, BLI and Kaplan-Meier survival (Example 9); assay type: in vivo, mice
[22] = tested on: GBM12, GBM14, GBM26, or GBM43 cells derived from GBM patients; experiment: Orthotopic GBM PDX models with additional patient cells, BLI and survival (Example 10, paper example); assay type: in vivo, mice
Experimental: (§5) The study is composed of two groups of 10 PDX mice per group. The first group is administered with 20 mg/kg of BCV, and the second group with the vehicle only. BCV is administered intraperitoneally twice weekly from day 5 to day 28 post-implantation.

[23] = Systemic toxicity observation in additional PDX models (Example 10, paper example); assay type: in vivo, mice; details: 20 mg/kg BCV intraperitoneally twice weekly
Experimental: as §5

[24] = tested on: U87MG human glioblastoma (GBM) cell line; experiment: BCV and TMZ combination in U87MG GBM animal model, BLI and survival rate (Example 2)
[25] = 20 mg/kg BCV intraperitoneally twice weekly

CCCCCCCCCCCCCCCCOCCCOP(=O)(O)CO[C@H](CO)Cn1ccc(N)nc1=O [BCV, [(2S)-1-(4-amino-2-oxopyrimidin-1-yl)-3-hydroxypropan-2-yl]oxymethyl-(3-hexadecoxypropoxy)phosphinic acid]
normalized BLI (proliferation of GBM cells in the brain) compared to the vehicle group ([1]; 10 mg/kg BCV intraperitoneally twice weekly for 5 weeks from day 7 post-implantation): tendency to suppress the growth of intracerebral GBM compared to the vehicle group, although the difference was not statistically significant | normalized BLI (proliferation of GBM cells in the brain) compared to the vehicle group ([1]; 20 mg/kg BCV intraperitoneally twice weekly for 5 weeks, days 28 and 35 post-implantation): significant (P < 0.05) decrease in normalized BLI | normalized BLI (proliferation of GBM cells in the brain) compared to the vehicle group ([1]; 40 mg/kg BCV intraperitoneally twice weekly for 5 weeks, between days 22 and 35 post-implantation): significant (P < 0.05 to P < 0.0001) decrease in normalized BLI | body weight ([2]; 40 mg/kg BCV intraperitoneally twice weekly for 5 weeks): weight loss was observed | systemic toxicity symptoms ([2]; other BCV-treated groups (10 and 20 mg/kg BCV intraperitoneally twice weekly)): No remarkable systemic toxicity symptoms were observed | systemic toxicity symptoms [3]: no remarkable systemic toxicity symptoms were observed | individuals survived on day 27 post-GBM implantation [4, 25]: 60% | normalized BLI compared to the vehicle group ([4]; 20 mg/kg BCV intraperitoneally twice weekly day 6 to day 30, between days 13 and 23 post-implantation): significant (P < 0.05 to P < 0.01) decrease in normalized BLI | systemic toxicity symptoms [5]: no remarkable systemic toxicity symptoms were observed | AUC(0-inf) ([6]; read-out: drug exposure, AUCinf): 2910 ng·h/mL | Cmax ([6]; read-out: drug exposure, Cmax): 1940 ng/mL | IC50 [7]: 2200 nM | IC50 [8]: 1770 nM | IC50 [9]: 30 nM | IC50 [10]: 73.9 µM | IC50 [11]: 960 nM | IC50 [12]: 7.47 µM | IC50 [13]: 9.3 µM | IC50 [14]: 1930 nM | IC50 [15]: 810 nM | IC50 [16]: 8.27 µM | IC50 [17]: 5.86 µM | IC50 [18]: 2200 nM | sensitivity to BCV relative to the parent strain U-87MG cells [19]: 2.47 times | sensitivity to BCV relative to the parent strain U-87MG cells [20]: 16.28 times | individuals alive on day 33 post-GBM implantation [21, 25]: 65% | normalized BLI compared to the vehicle group ([21]; 20 mg/kg BCV intraperitoneally twice weekly day 5 to day 28, between days 21 and 28 post-implantation): significant (P < 0.0001) decrease in normalized BLI | median survival time ([21]; 20 mg/kg BCV, P < 0.01, vehicle group 25.5 days): 50.0 days | survival period compared to the vehicle group [22, 25]: longer survival period | normalized BLI compared to the vehicle group ([22]; 20 mg/kg BCV intraperitoneally twice weekly day 5 to day 28): significant decrease in normalized BLI | systemic toxicity symptoms [23]: No remarkable systemic toxicity symptoms are observed | survival rate on day 37 post-GBM implantation ([24]; 10 mg/kg BCV monotherapy): no individuals survived | growth of intracerebral GBM (normalized BLI) compared to the vehicle group ([24]; 10 mg/kg BCV monotherapy, intraperitoneally twice weekly day 8 to day 38): tendency to suppress the growth of intracerebral GBM compared to the vehicle group, although the difference was not statistically significant | survival rate on day 37 post-GBM implantation ([24]; 20 mg/kg BCV monotherapy): 50% | normalized BLI compared to the vehicle group ([24]; 20 mg/kg BCV monotherapy, days 23 and 28 post-implantation): significant (P < 0.05) decrease in normalized BLI

— patent EP4699610A1, “PHARMACEUTICAL COMPOSITION FOR TREATING GLIOMA” (SymBio Pharmaceuticals Limited, priority 2023, dated 2024)
